From patent US9855268B2, “Triazolo[4,5-d]pyrimidine derivatives” (Merck Patent GmbH, priority 2013, dated 2018) come the findings set out here.

Amino acid sequences for entries named in this document (tags omitted).
UniProt Q9P2K8, whole entry: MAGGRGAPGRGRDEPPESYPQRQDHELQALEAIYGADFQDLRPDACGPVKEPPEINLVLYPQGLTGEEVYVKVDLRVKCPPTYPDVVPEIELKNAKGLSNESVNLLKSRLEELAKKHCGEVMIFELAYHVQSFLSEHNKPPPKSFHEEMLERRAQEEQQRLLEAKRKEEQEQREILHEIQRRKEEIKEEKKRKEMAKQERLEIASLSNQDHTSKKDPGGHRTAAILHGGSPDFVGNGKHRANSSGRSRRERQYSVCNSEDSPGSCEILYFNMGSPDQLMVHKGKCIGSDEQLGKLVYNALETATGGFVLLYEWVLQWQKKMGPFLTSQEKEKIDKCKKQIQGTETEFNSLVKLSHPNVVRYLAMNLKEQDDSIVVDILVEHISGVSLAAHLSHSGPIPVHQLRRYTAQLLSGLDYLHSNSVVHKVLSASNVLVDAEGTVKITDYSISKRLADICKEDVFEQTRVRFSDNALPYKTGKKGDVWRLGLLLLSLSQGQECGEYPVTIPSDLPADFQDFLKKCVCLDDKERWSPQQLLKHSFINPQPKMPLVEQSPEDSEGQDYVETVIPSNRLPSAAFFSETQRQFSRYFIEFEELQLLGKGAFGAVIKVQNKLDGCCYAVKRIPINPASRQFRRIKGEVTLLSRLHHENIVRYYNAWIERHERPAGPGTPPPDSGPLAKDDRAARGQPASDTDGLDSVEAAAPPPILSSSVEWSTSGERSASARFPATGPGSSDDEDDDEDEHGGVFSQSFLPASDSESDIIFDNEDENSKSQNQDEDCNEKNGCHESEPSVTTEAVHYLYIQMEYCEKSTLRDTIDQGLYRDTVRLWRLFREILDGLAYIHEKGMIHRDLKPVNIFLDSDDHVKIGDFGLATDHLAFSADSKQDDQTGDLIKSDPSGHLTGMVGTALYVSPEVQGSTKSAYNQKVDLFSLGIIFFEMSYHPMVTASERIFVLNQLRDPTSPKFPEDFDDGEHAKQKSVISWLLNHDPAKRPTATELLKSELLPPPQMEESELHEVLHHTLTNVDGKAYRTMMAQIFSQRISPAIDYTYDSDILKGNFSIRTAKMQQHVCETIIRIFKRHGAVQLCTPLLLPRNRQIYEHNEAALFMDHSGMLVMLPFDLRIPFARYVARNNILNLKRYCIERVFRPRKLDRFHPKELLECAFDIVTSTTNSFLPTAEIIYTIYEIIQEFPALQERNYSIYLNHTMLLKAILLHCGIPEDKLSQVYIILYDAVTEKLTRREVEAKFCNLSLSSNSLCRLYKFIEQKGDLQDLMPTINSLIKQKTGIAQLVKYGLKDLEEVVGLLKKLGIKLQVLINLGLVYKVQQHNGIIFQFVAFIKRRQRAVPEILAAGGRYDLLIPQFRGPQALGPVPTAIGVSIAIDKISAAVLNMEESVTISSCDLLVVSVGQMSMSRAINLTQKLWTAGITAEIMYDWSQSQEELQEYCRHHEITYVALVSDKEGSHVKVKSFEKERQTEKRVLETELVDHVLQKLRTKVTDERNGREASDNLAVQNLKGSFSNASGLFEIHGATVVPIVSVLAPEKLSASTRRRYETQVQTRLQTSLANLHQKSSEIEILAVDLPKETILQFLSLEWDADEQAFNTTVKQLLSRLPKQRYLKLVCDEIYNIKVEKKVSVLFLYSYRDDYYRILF

Structures are written as SMILES.

This test addresses GCN2 (Homo sapiens, UniProt Q9P2K8). Nature of the test: GCN2 enzyme assay (TR-FRET Lanthascreen, GFP-eIF2alpha phosphorylation). It is filed as biochemical. The settings on record: read-out: IC50 GCN2 (enzyme assay); 10 μM ATP, 80 nM GFP-eIF2a, 30 nM GCN2. (TR-FRET usually uses a lanthanide donor and a delayed reading to cut background.)

By IC50 is commonly meant the concentration that gives 50% inhibition. On to `COc1ccc(-n2nnc3cnc(NC4CCC(O)C4)nc32)cc1` (single isomer, unassigned), for which the IC50 was under 1 µM.
